By UniProt entry, the sequences of proteins in these tests, tags left out. Residues count along the entry.
UniProt O60674, 536-812: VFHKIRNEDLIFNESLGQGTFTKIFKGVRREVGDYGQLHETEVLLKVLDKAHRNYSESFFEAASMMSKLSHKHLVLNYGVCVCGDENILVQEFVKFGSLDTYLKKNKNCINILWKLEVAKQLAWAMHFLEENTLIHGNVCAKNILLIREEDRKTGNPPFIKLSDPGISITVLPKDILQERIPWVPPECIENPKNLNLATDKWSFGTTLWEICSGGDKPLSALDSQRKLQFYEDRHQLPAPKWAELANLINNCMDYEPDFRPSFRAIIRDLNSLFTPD

According to article PMC9939005 (Journal of medicinal chemistry, 2022):

Assays:
STAT-5 phosphorylation = settings: cited from earlier work
JAK2 JH2 WT [1] = format: binding
JAK2 JH2 V617F = format: binding
JAK2 JH2 WT [2] = target: JAK2 JH2 WT (Homo sapiens, UniProt O60674); format: binding; settings: Kd with WT JAK2 JH2

N#CC[C@H](C1CCCC1)n1cc(-c2ncnc3[nH]ccc23)cn1 [Ruxolitinib, ruxolitinib]
IC50 (STAT-5 phosphorylation; literature report): 0.274 µM | IC50 (STAT-5 phosphorylation; literature reports): 0.03 to 0.1 µM

CNC(=O)c1ccc(Nc2nc(N)n(C(=O)Nc3ccc(-c4ccc(OCc5ccccc5)c(C(=O)O)c4)cc3)n2)cc1 [Compound 13, 4’-(5-amino-3-((4-(methylcarbamoyl)phenyl)amino)-1H-1,2,4-triazole-1-carboxamido)-4-(benzyloxy)-[1,1’-biphenyl]-3-carboxylic acid]
greater selectivity over JH1 binding than 2 (JAK2 JH2 WT [1]): 10 fold

Nc1nc(Nc2ccc(S(N)(=O)=O)cc2)nn1C(=O)Nc1ccc(-c2ccnc(C(=O)O)c2)cc1 [Compound 6, 4-(4-(5-amino-3-((4-sulfamoylphenyl)amino)-1H-1,2,4-triazole-1-carboxamido)phenyl)picolinic acid]
selectivity toward the mutant (V617F) JH2 compared to WT JH2 (JAK2 JH2 V617F): 3 fold

Nc1nc(Nc2ccc(S(N)(=O)=O)cc2)nn1C(=O)Nc1ccc(-c2ccc(OCc3ccccc3)c(C(=O)O)c2)cc1 [Compound 11, 4’-(5-amino-3-((4-sulfamoylphenyl)amino)-1H-1,2,4-triazole-1-carboxamido)-4-(benzyloxy)-[1,1’-biphenyl]-3-carboxylic acid]
more potent than 7 (JAK2 JH2 WT [2]): ~3.5 x

Read-outs that look alike come from different tables or passages of the source.
